Values quoted from earlier work as cited in patent US9469616B2, “Cyclic compounds and methods of making and using the same” (Cellceutix Corporation, priority 2011, dated 2016).

System: human RBCs
Details: Data from Thaker, et al., J. Med. Chem., 2011, 54, 2241; cited from earlier work

MSI-78
HC50: 120 µg/mL
